Measurements taken from US12404241B2 (Celgene Corporation, priority 2018, dated 2025).

Protein sequences, listed by entry. Tags and fused reporters are not part of them.
UniProt P10275, whole entry: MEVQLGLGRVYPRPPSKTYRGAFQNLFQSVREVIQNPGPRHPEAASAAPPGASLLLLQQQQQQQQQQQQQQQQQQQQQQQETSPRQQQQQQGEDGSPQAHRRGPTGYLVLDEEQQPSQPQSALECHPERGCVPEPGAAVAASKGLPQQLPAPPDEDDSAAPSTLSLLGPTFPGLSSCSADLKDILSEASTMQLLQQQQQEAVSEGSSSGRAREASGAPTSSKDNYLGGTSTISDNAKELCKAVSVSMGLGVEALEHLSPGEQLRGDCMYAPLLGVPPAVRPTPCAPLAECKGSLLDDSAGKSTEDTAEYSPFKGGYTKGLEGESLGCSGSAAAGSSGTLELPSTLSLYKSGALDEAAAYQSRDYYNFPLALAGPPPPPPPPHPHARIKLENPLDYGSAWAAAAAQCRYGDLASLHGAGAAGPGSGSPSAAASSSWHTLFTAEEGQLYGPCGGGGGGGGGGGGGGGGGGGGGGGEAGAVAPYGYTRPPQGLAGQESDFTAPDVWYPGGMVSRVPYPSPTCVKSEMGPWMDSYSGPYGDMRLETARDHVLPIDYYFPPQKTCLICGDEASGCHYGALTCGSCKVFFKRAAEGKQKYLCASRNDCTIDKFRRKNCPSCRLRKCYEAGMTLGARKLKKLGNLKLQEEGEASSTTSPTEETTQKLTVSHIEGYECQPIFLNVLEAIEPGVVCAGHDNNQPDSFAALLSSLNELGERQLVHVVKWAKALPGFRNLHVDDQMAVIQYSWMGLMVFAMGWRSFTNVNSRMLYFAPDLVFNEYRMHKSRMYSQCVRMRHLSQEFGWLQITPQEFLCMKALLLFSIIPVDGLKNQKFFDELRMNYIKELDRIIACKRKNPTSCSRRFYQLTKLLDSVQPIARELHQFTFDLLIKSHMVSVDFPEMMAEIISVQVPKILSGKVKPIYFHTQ

Target: AR (Homo sapiens, UniProt P10275)
Assay: VCAP AR Degradation Assay
Description: VCAP AR Degradation Assay. Test compounds were pre-dispensed into a Corning CellBind 96-well clear bottom plate (Cat #3300) using an acoustic dispenser to make a 10-point concentration series at 1:3 dilution for each compound. The final top concentration of each compound was 5 μM. DMSO at a final concentration of 0.1% was used as a control. VCaP cells cultured in DMEM with 8% fetal bovine serum (FBS) were seeded at 50K cells per well in a 200 μL volume into the compound plate and incubated at 37° C. in a CO2 incubator for 24 h. The medium was carefully removed from the cells and the plate was placed on ice. […] AR levels in compound-treated wells were normalized to that of DMSO control and expressed as percent of control (PoC) (y). […]
[formula] • A=YMin (lowest AR level normalized to DMSO control in response to compound treatment, as determined by curve fit) • B=YMax (maximum AR level as determined by curve fit) • C=EC50 • D=Hill Slope • x=compound concentration • EC50=the concentration of compound when y=(YMax−YMin)/2 • DC50=the concentration of the compound when y=50% of DMSO control (50% AR degradation) • y=AR protein level normalized to DMSO control
The lowest measured AR level normalized to DMSO control in response to compound treatment, termed Y value, was used to characterize the compound-mediated AR degradation efficiency.

C[C@@H]1CN(CCOc2ccc(N3C(=S)N(c4ccc(C#N)c(Cl)c4)C(=O)C3(C)C)cc2Cl)C[C@H](C)N1CC(=O)Nc1cccc(NC2CCC(=O)NC2=O)c1 (some centres unmarked)
Y (AR degradation efficiency, % of DMSO control) (class symbols *, **): * (0<Y<=25%)
DC50 (class symbols A-C): < 100 nM
